Target: T1, Peroxisome proliferator-activated receptor alpha (Homo sapiens, UniProt Q07869)
T1 sequence (Q07869 whole entry): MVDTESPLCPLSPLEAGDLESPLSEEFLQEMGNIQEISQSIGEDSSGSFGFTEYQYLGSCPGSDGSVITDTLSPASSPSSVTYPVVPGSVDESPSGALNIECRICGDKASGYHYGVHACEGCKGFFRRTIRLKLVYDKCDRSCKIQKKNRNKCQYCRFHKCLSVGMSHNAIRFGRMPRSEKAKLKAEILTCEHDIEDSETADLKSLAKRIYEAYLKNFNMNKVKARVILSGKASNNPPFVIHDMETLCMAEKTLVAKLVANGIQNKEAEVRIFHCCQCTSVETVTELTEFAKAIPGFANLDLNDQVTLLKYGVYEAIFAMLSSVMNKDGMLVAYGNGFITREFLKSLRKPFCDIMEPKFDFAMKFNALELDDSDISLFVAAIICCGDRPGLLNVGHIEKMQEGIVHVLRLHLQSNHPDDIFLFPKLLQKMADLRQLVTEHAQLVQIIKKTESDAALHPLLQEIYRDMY
Test: Displacement of tritium labeled ligand from human PPARalpha by SPA assay

EC50: 345 nM
IC50: 1220 nM
SMILES: Cc1oc(-c2ccccc2)nc1CCOc1ccc(C[C@H](Nc2ccccc2C(=O)c2ccccc2)C(=O)O)cc1 [FARGLITAZAR]

Source: ChEMBL document CHEMBL1146163 (Bioorg Med Chem Lett, 2006)
